Measurements from ChEMBL document CHEMBL4028858, “Structural Biology-Inspired Discovery of Novel KRAS-PDEδ Inhibitors” (J Med Chem, 2017).

Sequences of proteins named here, by UniProt entry; tags and fusion partners are left off. A change or cut given only in a name is not applied to a line headed by its entry.
UniProt O43924: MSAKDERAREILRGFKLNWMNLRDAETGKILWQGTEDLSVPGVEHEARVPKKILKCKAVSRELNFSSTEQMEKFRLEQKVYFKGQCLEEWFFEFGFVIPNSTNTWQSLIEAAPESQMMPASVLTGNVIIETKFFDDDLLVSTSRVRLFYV

Molecular target: Retinal rod rhodopsin-sensitive cGMP 3',5'-cyclic phosphodiesterase subunit delta (Homo sapiens, UniProt O43924)

- Kd: 24 nM
SMILES: c1ccc(Cn2c(-c3ccc(OC[C@H](C4CCNCC4)n4c(-c5ccccc5)nc5ccccc54)cc3)nc3ccccc32)cc1
